The list shows a part of the results, in another mix than the full data. Some tests of the compounds listed are not included; inactive here does not mean inactive elsewhere. Active and inactive are the calls of the source.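 How the source made its calls: active means activation above a set limit, based on mean plus 3 SD of controls (cut at about 140% in these data); inconclusive means one replicate above the limit, the other below; inactive means the rest.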
experiment: APP 5'UTR reporter signal increase – luciferase, SH-SY5Y cells, primary screen (AID 1276); settings: SH-SY5Y APP 5'UTR luciferase reporter, luminescence; at 2 µM; hits give high values; zero percent = DMSO vehicle wells

SMILES	activation
O=C(NCC1(N2CCCCC2)CCCCC1)c1cc([N+](=O)[O-])ccc1Cl	inactive: 13.2%
CC(C)N1C(=O)CC2(CCN(CCOC(=O)C(O)(c3ccccc3)c3ccccc3)CC2)C1=O	inactive: 3.31%
Cc1ccccc1C(=O)NCC1(N2CCCCC2)CCCCC1	inactive: 2.86%
CN(C)C1CCCC1OC(=O)C(O)(c1ccccc1)c1ccccc1 (centres undefined)	inactive: -15.8%
CCN1CCCC(OC(=O)C2(O)c3ccccc3C=Cc3ccccc32)C1 (centres undefined)	inactive: -4.84%
C=CCN1CCN(CCOC(=O)C(O)(c2ccccc2)c2ccccc2)CC1	inactive: 4.68%
COc1cccc(C(=O)NCC2(N3CCCCC3)CCCCC2)c1	inactive: 24.5%
O=C(OC1CN2CCC1CC2)C(CO)(c1ccccc1)c1ccccc1 (centres undefined)	inactive: 11.9%
CN(C)c1cccc(C(=O)NCC2(N(C)C)CCCCC2)c1	inactive: 35.3%
